This experiment has as its target T1, Solute carrier family 22 member 1 (Rattus norvegicus, UniProt Q63089).
T1 sequence (Q63089 whole entry): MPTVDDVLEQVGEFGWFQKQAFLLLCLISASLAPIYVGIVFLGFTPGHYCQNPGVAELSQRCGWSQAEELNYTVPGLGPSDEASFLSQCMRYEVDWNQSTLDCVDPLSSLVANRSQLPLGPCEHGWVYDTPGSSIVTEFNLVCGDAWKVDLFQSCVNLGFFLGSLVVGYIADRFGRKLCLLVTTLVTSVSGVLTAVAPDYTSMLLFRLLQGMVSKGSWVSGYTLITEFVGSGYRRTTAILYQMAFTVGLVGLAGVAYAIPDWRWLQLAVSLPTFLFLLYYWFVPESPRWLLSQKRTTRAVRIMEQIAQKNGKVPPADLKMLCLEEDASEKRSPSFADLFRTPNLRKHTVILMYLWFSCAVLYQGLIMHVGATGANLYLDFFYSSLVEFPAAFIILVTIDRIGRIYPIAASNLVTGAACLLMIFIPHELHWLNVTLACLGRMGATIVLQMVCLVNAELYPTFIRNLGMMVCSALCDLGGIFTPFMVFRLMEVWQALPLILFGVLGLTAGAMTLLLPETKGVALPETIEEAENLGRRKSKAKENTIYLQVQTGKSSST
It counts as functional, cell-based, Xenopus laevis, Oocyte.

By Ki is commonly meant a measure of affinity in units of concentration, obtained from inhibition or displacement. `C[N+](C)(C)C` [TETRAMETHYLAMMONIUM] came in with an inhibitory constant (Ki) of 905 µM.

Values taken from ChEMBL document CHEMBL2074488, “Kinetic and selectivity differences between rodent, rabbit, and human organic cation transporters (OCT1)” (J Pharmacol Exp Ther, 2000).
